Data published in patent publication US20040191303A1, “Use of selectin-binding pregnancy proteins, liposomes, native mucin fragments and mimetic compounds for the treatment and prophylaxis inflammatory diseases, for preventing metastatic spread and for the prophylaxis of tumour diseases” (priority 2000, published 2004).

Columns and labels:
E-selectin = target: T1, E-selectin (Homo sapiens, UniProt P16581); experiment: Adhesion inhibition test: HepG2 hepatoma cells to immobilized recombinant E-selectin; assay type: cell-based
T1 construct: purchased R & D Systems
T1 sequence (P16581 22-610): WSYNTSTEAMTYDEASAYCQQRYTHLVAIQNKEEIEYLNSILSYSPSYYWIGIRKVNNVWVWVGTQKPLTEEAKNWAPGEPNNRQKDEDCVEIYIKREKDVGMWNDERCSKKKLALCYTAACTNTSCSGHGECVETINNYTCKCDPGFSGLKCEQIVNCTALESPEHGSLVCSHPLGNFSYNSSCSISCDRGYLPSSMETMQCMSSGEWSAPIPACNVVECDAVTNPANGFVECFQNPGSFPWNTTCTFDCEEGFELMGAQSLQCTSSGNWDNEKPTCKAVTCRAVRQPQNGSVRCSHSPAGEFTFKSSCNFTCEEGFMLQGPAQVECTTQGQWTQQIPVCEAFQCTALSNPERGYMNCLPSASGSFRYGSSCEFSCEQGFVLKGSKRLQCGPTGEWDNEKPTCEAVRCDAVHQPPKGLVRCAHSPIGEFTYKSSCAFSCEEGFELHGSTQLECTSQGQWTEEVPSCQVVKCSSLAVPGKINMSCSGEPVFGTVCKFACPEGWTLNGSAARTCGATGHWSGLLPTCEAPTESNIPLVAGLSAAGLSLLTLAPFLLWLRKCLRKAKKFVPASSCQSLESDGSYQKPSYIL
Experimental: (§1) The adhesion test described below is used in vitro to test the active substances. To this end, either recombinant E-selectin is immobilized on 96-well titer plates, or the expression of E-selectin on activated endothelial cells from veins of human umbilical cords (HUVEC) is induced by stimulation with cytokines. Culturing of HUVEC endothelial cells is also performed in 96-well microtiter plates.
(§2) E-selectin (R & D Systems) (5 μg/ml) is immobilized by incubating at 4° C. over-night. The plates are washed with a calcium-containing phosphate buffer (Ca-PBS) and blocked with 1% bovine serum albumin (BSA) for 1 hour at room temperature. Amniotic hCG (0.005-1 nmol/well) is added and pre-incubated for 30 minutes at room temperature. Thereafter, 1×10^5 51Cr-labelled HepG2 hepatoma cells adhering to E-selectin are added, and this is incubated for another 30 minutes at room temperature. Subsequently, the unbound cells are removed by washing 3 times with Ca-PBS, and the bound cells, following lysis with 0.1 N sodium hydroxide solution, are quantified by means of radioactivity measurement. As controls, the carbohydrate-binding domain of E-selectin-blocking monoclonal antibody BBA2 (R & D Systems), EDTA to remove Ca from the test system, and the monovalent tetrasaccharide sialyl-Lewis x (sLe^x) binding selectively but with low affinity are used and carried along in parallel in the test series.
(§3) The IC50 values (concentration of inhibiting agent for 50% inhibition of adhesion) are indicated.

activated HUVEC = experiment: Adhesion inhibition test: HepG2 hepatoma cells to IL-1β activated HUVEC; assay type: cell-based, human; conditions: HepG2 cell adhesion
Experimental: as §1, §2
HUVECs are isolated from veins of fresh human umbilical cords, used up to the 3rd passage, and cultured to confluence in 96-well titer plates for testing. Expression on HUVEC is induced by adding 0.2 ng of IL-1β per well, reaching its maximum after 4 hours. At this point, an adhesion test/adhesion inhibition test analogous to the one for immobilized E-selectin is performed.
as §3

cell adhesion = experiment: Testing of gestation proteins from various sources as adhesion blocker; assay type: cell-based
From the text: Testing of Gestation Proteins from Various Sources as Adhesion Blocker
The trophoblast culture line has been purchased and not subjected to genetic engineering. Isolation is effected in analogy to the production of gestation proteins of Examples 1 to 3.

[1] = HepG2 cell adhesion, concentration of inhibiting agent for 50% inhibition of adhesion

With “Amniotic hCG: human chorionic gonadotropin isolated from amniotic fluid” the IC50 (E-selectin; [1]) was 0.062 µM, the IC50 (activated HUVEC) was 0.15 µM and the Adhesion blocking (cell adhesion) was “Yes”.

“Jeg3 hCG: hCG from trophoblast cell line Jeg3” was tested, and the IC50 (E-selectin; [1]) was 0.14 µM, the IC50 (activated HUVEC) was 0.1 µM and the Adhesion blocking (cell adhesion) was “Yes”.

“Serum hCG: human chorionic gonadotropin isolated from pooled serum of pregnant women in the first trimenon” was tested, and the IC50 (E-selectin; [1]) was 0.34 µM, the “effect, times less compared to amniotic hCG” value (E-selectin; adhesion inhibition test following Example 1b) was “about 3 times” and the “times more effective than sLe^x” value (E-selectin; adhesion inhibition, relative to monovalent tetrasaccharide sLe^x) was 10^4 times. The IC50 (activated HUVEC) was 0.18 µM and the Adhesion blocking (cell adhesion) was “Yes”.

With “Urinary hCG: human chorionic gonadotropin from urine of pregnant women” the “Immobilized E-selectin IC50” value (E-selectin; [1]) was “None”, the “Activated HUVEC IC50” value (activated HUVEC) was “None” and the Adhesion blocking (cell adhesion) was “No”.
